Source: US8507447, “Treatments of gastrointestinal disorders” (dated 2013)

T1: Peptide 2
T1 chain: CCSLCCNPACTGC

T2: Peptide 3
T2 chain: CCELCCNPACTGCY

T3: Peptide 1
T3 chain: CCSLCCNPACTGCY


Assays:
[1] = target: Guanylate cyclase C (human), P25092; test: cell-based or functional assay
Peptide 2 = target: T1, Peptide 2
Peptide 3 = target: T2, Peptide 3
Peptide 1 = target: T3, Peptide 1

Binder | cGMP response of T84 cells, EC50 at pH 5 [1] [nM] | cGMP response of T84 cells, EC50 at pH 5 (nM) [1] [nM] | also measured
DDCCSYCCNPACTGCY (modifications not checked) [Peptide 6] | 39.2 |  | 
CCSLCCNPACTGC (modifications not checked) [Dephospho-Peptide 2] |  | 78.1 | 
CCSLCCNPACTGCY (modifications not checked) [Dephospho-Peptide 1] |  | 128 | 
DDCCSLCCNPACTGCY (modifications not checked) [Peptide 5] | 14.7 |  | 
Calf intestinal alkaline phosphatase (protein) LVPVEEEDPAFWNRQAAQALDVAKKLQPIQTAAKNVILFLGDGMGVPTVTATRILKGQMNGKLGPETPLAMDQFPYVALSKTYNVDRQVPDSAGTATAYLCGVKGNYRTIGVSAAARYNQCKTTRGNEVTSVMNRAKKAGKSVGVVTTTRVQHASPAGAYAHTVNRNWYSDADLPADAQMNGCQDIAAQLVNNMDIDVILGGGRKYMFPVGTPDPEYPDDASVNGVRKRKQNLVQAWQAKHQGAQYVWNRTALLQAADDSSVTHLMGLFEPADMKYNVQQDHTKDPTLQEMTEVALRVVSRNPRGFYLFVEGGRIDHGHHDDKAYMALTEAGMFDNAIAKANELTSELDTLILVTADHSHVFSFGGYTLRGTSIFGLAPSKALDSKSYTSILYGNGPGYALGGGSRPDVNDSTSEDPSYQQQAAVPQASETHGGEDVAVFARGPQAHLVHGVEEETFVAHIMAFAGCVEPYTDCNLPAPTTATSIPD |  |  | Dephosphorylation of Peptide 2, Dephospho (%), alkaline phosphatase pH 8 (Peptide 2): 100%; Dephosphorylation of Peptide 2, Remaining (%), alkaline phosphatase pH 8 (Peptide 2): 0%; LC-MS of reactions with and without calf intestinal alkaline phosphatase (Peptide 3): Peptide 3 was not affected by CIP treatment (data not shown); Dephosphorylation of Peptide 1, Dephospho (%), alkaline phosphatase pH 8 (Peptide 1): 100%
